# According to patent US20160213619A1, “INTRAORALLY DISINTEGRABLE TABLET COMPRISING DISINTEGRABLE GRANULAR COMPOSITION” (DAICEL CORPORATION, priority 2013, published 2016):
# Experiment: distribution coefficient (log P), measured between n-octanol and water
# Assay type: physicochemical
# Settings: experimental value
# Method: On the other hand, the measured value of the distribution coefficient is calculated by the following equation using a concentration of a medicinal ingredient dissolved in each of two phases of water and n-octanol, which is obtained by a conventional quantitative method such as absorption spectrophotometry, gas chromatography or liquid chromatography:
# Log P=Log [(concentration of the medicinal ingredient in n-octanol phase)/(concentration of the medicinal ingredient in water phase)
substance,measurement,value
famotidine,logP Observed,−0.82
